From publication PMC10500001, “Dual hypoxia-responsive supramolecular complex for cancer target therapy” (Nature Communications, 2023)

Test system: PANC1 tumor-bearing mice
Assay: In vivo fluorescence imaging
Settings: single mouse
Protocol: For animals and tumor model, male BALB/c nude mice at 5–6 weeks were purchased from Vital River Laboratory Animal Technology (Beijing, China). All animal experiments were performed according to the institutional animal care guidelines established by the Institutional Animal Care and Use Committee of Nankai University. To establish the PANC1 tumor-bearing mouse model, 1 × 10^6 PANC1 cells were injected subcutaneously into the right chest of BALB/c nude mice. After the tumor grows to a suitable size, the tumor was divided into small pieces and then subcutaneously incubated into the right chest of other mice. […] The ex vivo fluorescence imaging of major organs at 24 h post injection was imaged by IVIS. Fluorescent images were analyzed using Living Image 3.1 (Caliper Life Sciences).

SMILES: CN1C(=CC=CC=CC2=[N+](C)c3ccccc3C2(C)C)C(C)(C)c2ccccc21 [CY5-DM, 1,1’,3,3,3’,3’-hexamethylindodicarbocyanine]
- FL intensity of the tumor in vivo (1h post iv injection): 2.04E+09
- FL intensity of the tumor in vivo (3h post iv injection): 1.51E+09
